In test [1] the target is T1, Tyrosine-protein kinase BTK (Homo sapiens, UniProt Q06187). As to the kind of experiment: Inhibition of BTK in human PBMC assessed as reduction in cell surface CD69 expression preincubated for 1 hr followed by stimulation with goat anti-human IgM F(ab')2 for 18 hrs by immunostaining analysis. Format: tissue-based.
Test [2] addresses T1, Tyrosine-protein kinase BTK. In words: Inhibition of BTK in human whole blood assessed as reduction in cell surface CD69 expression preincubated for 1 hr followed by stimulation with anti-CD79b for 3 hrs by immunostaining analysis. The test is classed as tissue-based.
Test [3] has the same target. In words: Inhibition of recombinant full length BTK (unknown origin) expressed in baculovirus infected Sf9 cells using Biotin-EQEDEPEGDYFEWLE-NH2 peptide as substrate incubated for 60 mins followed by further incubation with substrate and ATP for 120 mins by TR-FRET assay.

Sequences of proteins named here, by UniProt entry; tags and fusion partners are left off. A change or cut given only in a name is not applied to a line headed by its entry.
UniProt Q06187: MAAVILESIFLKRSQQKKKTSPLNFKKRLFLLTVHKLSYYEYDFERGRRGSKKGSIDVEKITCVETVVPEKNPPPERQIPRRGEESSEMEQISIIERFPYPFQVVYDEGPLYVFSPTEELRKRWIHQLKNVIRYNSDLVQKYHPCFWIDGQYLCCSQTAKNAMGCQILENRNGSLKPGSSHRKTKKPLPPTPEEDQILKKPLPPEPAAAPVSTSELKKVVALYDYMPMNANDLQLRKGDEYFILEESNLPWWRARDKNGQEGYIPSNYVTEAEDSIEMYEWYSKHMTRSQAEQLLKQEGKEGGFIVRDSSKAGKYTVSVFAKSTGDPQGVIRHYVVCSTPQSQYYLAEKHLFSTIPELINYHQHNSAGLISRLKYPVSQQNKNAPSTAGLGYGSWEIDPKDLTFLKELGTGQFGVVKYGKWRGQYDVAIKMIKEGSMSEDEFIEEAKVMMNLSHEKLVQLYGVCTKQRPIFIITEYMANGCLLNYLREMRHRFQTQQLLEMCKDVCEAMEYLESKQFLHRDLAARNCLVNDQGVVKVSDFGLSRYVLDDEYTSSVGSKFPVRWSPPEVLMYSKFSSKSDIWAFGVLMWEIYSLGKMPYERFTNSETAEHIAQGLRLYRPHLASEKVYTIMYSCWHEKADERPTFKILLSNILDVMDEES

As to `COc1cc(C(=O)Nc2cc(C(F)(F)F)ccn2)ccc1-c1nc([C@@H]2CC[C@H]3CCC(=O)N3C2)n2ccnc(N)c12`, the concentration for half-maximal inhibition (IC50) in test [1] is 0.017 µM; in test [2] it was 0.03 µM; in test [3], 0.00021 µM.

What is called IC50 is the point on the concentration scale where inhibition reaches its midpoint.

Values taken from ChEMBL document CHEMBL4725309, “Potent, non-covalent reversible BTK inhibitors with 8-amino-imidazo[1,5-a]pyrazine core featuring 3-position bicyclic ring substitutes” (Bioorg Med Chem Lett, 2020).
